The chains behind the UniProt entries cited, without tags or fusion partners. Residues count along the entry.
UniProt P56817, 46-501 limits assumed: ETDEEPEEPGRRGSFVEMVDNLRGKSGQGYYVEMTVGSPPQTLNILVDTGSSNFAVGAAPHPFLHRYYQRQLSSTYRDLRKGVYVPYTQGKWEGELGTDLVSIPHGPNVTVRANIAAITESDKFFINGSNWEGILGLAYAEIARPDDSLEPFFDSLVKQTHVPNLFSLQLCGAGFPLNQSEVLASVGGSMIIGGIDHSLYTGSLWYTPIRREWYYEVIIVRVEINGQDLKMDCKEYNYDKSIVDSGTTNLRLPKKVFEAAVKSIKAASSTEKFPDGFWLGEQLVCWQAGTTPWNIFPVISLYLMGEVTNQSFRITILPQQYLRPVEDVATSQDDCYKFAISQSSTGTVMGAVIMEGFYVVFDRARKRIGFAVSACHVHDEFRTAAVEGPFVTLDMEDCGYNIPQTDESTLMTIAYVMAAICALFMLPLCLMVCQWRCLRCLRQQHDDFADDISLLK
UniProt P05067, 672-713 limits assumed: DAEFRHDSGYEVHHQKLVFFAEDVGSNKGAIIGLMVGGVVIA
UniProt P10636, 1-441 isoform 8: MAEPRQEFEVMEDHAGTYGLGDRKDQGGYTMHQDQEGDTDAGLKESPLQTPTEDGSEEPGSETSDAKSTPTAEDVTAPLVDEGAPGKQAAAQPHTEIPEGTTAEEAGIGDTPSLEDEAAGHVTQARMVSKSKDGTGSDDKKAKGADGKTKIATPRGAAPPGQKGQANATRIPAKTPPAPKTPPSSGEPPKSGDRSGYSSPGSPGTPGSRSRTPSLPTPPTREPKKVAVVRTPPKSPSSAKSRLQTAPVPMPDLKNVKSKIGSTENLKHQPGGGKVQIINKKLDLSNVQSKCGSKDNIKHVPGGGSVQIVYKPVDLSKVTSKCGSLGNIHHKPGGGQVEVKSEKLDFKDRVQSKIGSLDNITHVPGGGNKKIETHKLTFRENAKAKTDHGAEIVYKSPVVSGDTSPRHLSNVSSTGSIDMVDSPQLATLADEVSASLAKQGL

In PMC7594877, “Multidirectional in vitro and in cellulo studies as a tool for identification of multi-target-directed ligands aiming at symptoms and causes of Alzheimer’s disease” (Journal of Enzyme Inhibition and Medicinal Chemistry, 2020):

Legend:
human BACE1 = human BACE1 (Homo sapiens, UniProt P56817); details: read-out: hBACE1 IC50; mean of three experiments ± SEM
Aβ42 = Aβ42 (Homo sapiens, UniProt P05067); experiment: In cellulo Aβ42 aggregation inhibition, Thioflavin S fluorescence in E. coli overexpressing Aβ42; type: cell-based, Escherichia coli; details: at 10 µM; mean of three experiments ± SEM
tau = tau (Homo sapiens, UniProt P10636); experiment: In cellulo tau aggregation inhibition, Thioflavin S fluorescence in E. coli overexpressing tau; type: cell-based, Escherichia coli; details: at 10 µM; mean of three experiments ± SEM

SMILES | pIC50 (human BACE1) | In cellulo Aβ42 inhibition % (Aβ42) [%] | In cellulo tau inhibition % (tau) [%]
CN(CCCN1CCN(c2cccc3c2ccn3Cc2ccccc2)CC1)Cc1ccccc1 | 4.43 | 29.9 ± 3.4 | 21.2 ± 4.9
CN(CCN1CCN(c2cccc3c2ccn3S(=O)(=O)c2ccccc2)CC1)Cc1ccccc1 | 4.71 | 18.1 ± 2.7 | 43.8 ± 5.6
O=S(=O)(c1ccccc1)n1ccc2c(N3CCN(CCNC4CCN(Cc5ccccc5)CC4)CC3)cccc21 | 5.08 | 32.0 ± 3.7 | 34.9 ± 5.6

pIC50: −log10 of the molar value.
